# Earlier results, collected in patent publication EP0692191A1, “UTILIZATION OF PHENYL COMPOUNDS FOR THE CONTROL OF PHYTOPARASITE NEMATODES” (UNIVERSIDAD DE LA LAGUNA, priority 1993, dated 1995).
# Settings: comparison values on the scale of Repeto; cited from earlier work
substance,measurement,value
CdCl2,toxisches Potential pT50,"2,13"
